This note sets out measurements from patent US20090149461A1, “METHOD OF TREATING CANCER” (ABBOTT LABORATORIES, priority 2007, published 2009).

Amino acid sequences for entries named in this document (tags omitted).
UniProt P10415, whole entry: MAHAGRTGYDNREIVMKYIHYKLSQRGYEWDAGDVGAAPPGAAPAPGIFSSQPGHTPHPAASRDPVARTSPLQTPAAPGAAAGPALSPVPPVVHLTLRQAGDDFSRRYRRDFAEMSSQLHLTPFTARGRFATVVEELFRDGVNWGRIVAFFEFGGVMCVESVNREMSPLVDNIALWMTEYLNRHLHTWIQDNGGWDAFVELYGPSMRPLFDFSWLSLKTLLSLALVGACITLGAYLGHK

This test has as its target Bcl-2 (Homo sapiens, UniProt P10415). Nature of the test: binding affinity to anti-apoptotic Bcl-2 family proteins.

As to `CC1(C)CCC(c2ccc(Cl)cc2)=C(CN2CCN(c3ccc(C(=O)NS(=O)(=O)c4ccc(N[C@H](CCN5CCOCC5)CSc5ccccc5)c(S(=O)(=O)C(F)(F)F)c4)cc3)CC2)C1` [ABT-263, N-(4-(4-((2-(4-chlorophenyl)-5,5-dimethyl-1-cyclohex-1-en-1-yl)methyl)piperazin-1-yl)benzoyl)-4-(((1R)-3-(morpholin-4-yl)-1-((phenylsulfanyl)methyl)propyl)amino)-3-((trifluoromethyl)sulfonyl)benzenesulfonamide], the inhibitory constant (Ki) (in general, the equilibrium dissociation constant of an inhibitor or competing ligand from its target) was not above 1 nM.
